Values of other authors as cited in patent US6770674B1, “Mollusc repellent” (priority 1998, dated 2004).

Test system: Rat
Conditions: oral; cited from earlier work

**Q.** With Copper nitrate as the substance, how does the “LD50 (Rat)” value read?
**A.** The value was 940 mg/kg.
